Test results as given in patent US6410704B1 (priority 1991, dated 2002).

Chains of the proteins cited; added tags and fusions are not shown. Lines headed by an entry give the natural chain unless they say otherwise; changes in a name come on top.
UniProt P10210: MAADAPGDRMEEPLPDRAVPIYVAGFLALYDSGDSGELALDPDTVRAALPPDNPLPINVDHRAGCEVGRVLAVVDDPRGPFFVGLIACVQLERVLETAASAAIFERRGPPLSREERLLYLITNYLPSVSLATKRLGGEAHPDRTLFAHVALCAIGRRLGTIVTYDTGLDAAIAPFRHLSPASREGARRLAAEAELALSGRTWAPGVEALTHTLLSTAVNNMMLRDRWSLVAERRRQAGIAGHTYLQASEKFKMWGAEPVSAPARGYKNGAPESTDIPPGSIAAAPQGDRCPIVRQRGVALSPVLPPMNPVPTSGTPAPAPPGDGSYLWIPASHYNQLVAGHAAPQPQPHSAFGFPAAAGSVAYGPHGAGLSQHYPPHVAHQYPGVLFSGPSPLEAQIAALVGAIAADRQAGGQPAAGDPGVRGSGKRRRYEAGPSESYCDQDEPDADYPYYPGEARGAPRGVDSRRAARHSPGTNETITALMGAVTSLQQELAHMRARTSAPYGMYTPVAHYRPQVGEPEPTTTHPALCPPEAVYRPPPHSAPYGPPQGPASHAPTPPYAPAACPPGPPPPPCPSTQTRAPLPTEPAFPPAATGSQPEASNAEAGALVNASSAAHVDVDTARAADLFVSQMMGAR

Target: herpes protease (HSV-1 UL26 product, Pra) (Human herpesvirus 1, UniProt P10210)
Assay type: biochemical

O=S(=O)(F)Cc1ccccc1 [Phenylmethansulfonyl fluoride]
inhibition of the protease: at least 50%
